# Binding of CDR-mutated scFvs to a peptide of the spike HR2 region

Binding partner: SARS-CoV-2 spike HR2 peptide, sequence PDVDLGDISGINAS.

The variants keep the heavy chain, the linker and the frameworks of Ab-14 (scFv order VH, three GGGGS repeats, VL).
VH: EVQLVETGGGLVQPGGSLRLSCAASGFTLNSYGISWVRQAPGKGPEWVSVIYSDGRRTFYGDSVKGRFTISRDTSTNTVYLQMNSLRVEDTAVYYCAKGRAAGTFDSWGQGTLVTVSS
VL: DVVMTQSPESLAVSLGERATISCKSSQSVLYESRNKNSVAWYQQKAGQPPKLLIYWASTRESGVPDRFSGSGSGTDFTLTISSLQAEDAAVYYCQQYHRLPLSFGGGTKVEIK

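The starting antibody came from a phage panning campaign against this peptide. The variants were designed computationally from a first round of random CDR variants and then made and measured. Several design methods are mixed in this list. Affinity was read by AlphaSeq, a pooled yeast mating assay with surface-displayed partners. Pairs that bind mate more often; barcode pairs of the diploids are counted by sequencing. Read counts were normalised to the haploid input and turned into Kd by a linear fit to BCL2-family pairs of known affinity, for each replicate. Each pool was mated in six replicate cultures.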

Variants are written as CDR1, CDR2 and CDR3 of the light chain (limits as in the source). Parent: KSSQSVLYESRNKNSVA, WASTRES, QQYHRLPLS.
Variants here have at most six changes.
Each Kd is an estimate from the mating assay, the geometric mean of the replicates in which the pair was seen; lower is stronger.
A sequence measured in both rounds can read differently, since the two assays cover different ranges.
Empty control strains, which show no peptide, gave a signal in 4% of pairings with all light chain designs; the median was 430 nM and 95% of these signals were weaker than 38 nM. No background was subtracted.
The authors averaged sequences with at least three values out of six and counted those with two or fewer as poor binders.
The parent sequence was in this pool as ten entries: three were never detected, three once, and four in most replicates, with averages from 2.2 nM to 240 nM.

Variant KLEQSVLYESRNKNSVA | HASTRED | QQYHQLPLS gave 1.0 nM (6 of 6 replicates). Variant KMLQSNLYESRNKNSVA | NASTREW | QQYHRLPLS gave 1.0 nM (6 of 6 replicates). Variant KLSTSVLYESTNKNSVA | WASTREA | QQYHRLPLS gave 4.3 nM (6 of 6 replicates). Variant KMSQSVLYESRNKNSVA | RASTRES | QQYHRLPLS gave 4.7 nM (6 of 6 replicates). Variant KSSGSYLYESMNKNSVA | NASTRES | QQYHRLPLS showed 9.3 nM (6 of 6 replicates). Variant KFVQSWLYESRNKNNVA | HASTRCS | QQYHRLPLS showed 940 pM (6 of 6 replicates). Variant KSSQSVLYESDNRNSVA | WASTRES | QQYHRLRLS showed 150 nM (5 of 6 replicates).

For KVQQSVVYEGRNKNSVA | HASTRED | QQYHRLPLS, the assay gave 1.2 nM (6 of 6 replicates). For KLEQSDNYESRNKNSVA | NASTRES | QQYHRLPLS, the assay gave 440 pM (6 of 6 replicates). For KVSQSELYESRNKNSVA | NASTREQ | QQYHRLPLS, the assay gave 1.3 nM (6 of 6 replicates). For KLPQSVLYESRNKNSVA | QASTREV | QQYHRLPLS, the assay gave 560 pM (6 of 6 replicates). Variant KLSQSWLYESRNKNSVA | NASTRED | QDYHRLPLS gave 620 pM (6 of 6 replicates). For KSSQSVNYESRNKNSVA | WASTRES | QQYNRLPLS, the assay gave 42 nM (2 of 6 replicates). Variant KISQSVLYESRNLNSVA | GASTRES | QQYHRLPLS showed 2.7 nM (6 of 6 replicates).

With KVSQSVLYESRNKNNVA | NASQRES | QQYHRLPLS the result was 470 pM (6 of 6 replicates). Variant KLSQSVLMESRNKNNVA | EASQRES | QQYHRLPLS gave 520 pM (6 of 6 replicates). Variant KQSQSVKMESRNKNSVA | DASTRES | QQYHRLPLS showed 1.2 nM (6 of 6 replicates). With HVSQSVLYESRNENSVA | WASTRVS | QQYHRLPWS the result was 21 nM (5 of 6 replicates). Variant KSSYSVLYESFNKNSVA | EASTRES | AQYHRLPLS gave 8.2 nM (6 of 6 replicates). For KVSQSVMMESRNKNSVA | EASTRES | QQYHRLPLS, the assay gave 3.0 nM (6 of 6 replicates). Variant KVSQSHLYESRNKNSVA | DASQRES | QQYHRLPLS showed 2.4 nM (6 of 6 replicates).

With KSSQSFLYESRNKNAVA | GASTRES | QQYMRLTLS the result was 1.2 nM (6 of 6 replicates). Variant KHSQSVLMESRNKNSVA | EASTRES | QQYHRLPLS gave 190 nM (3 of 6 replicates). Variant KFEQSWLYESRNKNSVA | NASQRLS | QQYHRLPLS showed 610 pM (6 of 6 replicates). Variant QSSGSVLYESRNKNSVA | DASTRES | QQYHRLPLS showed 610 pM (6 of 6 replicates). Variant KLSQSVLYEDRVKNSVA | SASTRES | QQYHRLPLS showed 1.2 nM (6 of 6 replicates). Variant KFSQWMLYESRTKNSVA | DASTRES | QQYHRLPLS showed 850 pM (6 of 6 replicates). For KSSQSVLYDSRNKNSVA | SASTREF | QQYHRLPLS, the assay gave 2.6 nM (6 of 6 replicates).

With KSSQSWLYESRNFNSVA | GASTRES | QQYHRLPLS the result was 680 pM (6 of 6 replicates). With KSPQGVLYQSRNKNSVA | GASTRES | QQYHRLPLS the result was 22 nM (6 of 6 replicates). With KISQLGLYESRNKNSVA | NANTRES | QQYHRLPLS the result was 2.3 nM (6 of 6 replicates). Variant KSSQSVAYESRNKNSVA | GASTRES | QQYHRLPLS gave 2.4 nM (6 of 6 replicates). Variant KVPQGVLYESRNKNSVA | GASTRES | QQYHRLPLS showed 380 pM (6 of 6 replicates). With KSEQSVPYESRNKNSVA | EASTRES | QQYHRLPLS the result was 1.0 nM (6 of 6 replicates). For NLSQSELYESRNKNSVA | GGNTRES | QQYHRLPLS, the assay gave 2.6 nM (6 of 6 replicates).

Variant KSSQSVLYESRYKNSVA | WASERES | QQYFRLPLS gave 78 nM (5 of 6 replicates). Variant KLSESVLYESRNKNSVA | NASTRES | QQYHRLPLS showed 520 pM (6 of 6 replicates). For KMSQSVLYEDRNKNSVA | NASTRES | QQYHRLPLS, the assay gave 480 pM (6 of 6 replicates). Variant KFSQSPLTESRNKNSVA | WASTRES | QQYHRLPLS gave 7.5 nM (6 of 6 replicates). With KLSQWYWYESRNKNSVA | QASTREV | QQYHRLPLS the result was 1.4 nM (6 of 6 replicates). For KSSESVLYESLNKNSVA | WDSTRNS | QQYHRLPLF, the assay gave 45 nM (1 of 6 replicates). With KSQQSVLYESRNKNNVA | NASTRED | QQYHRLPLS the result was 240 pM (6 of 6 replicates).

With KSSQSYHYESRNKNSVA | HASTRES | QQYHRLPLS the result was 13 nM (6 of 6 replicates). Variant KLAQSVLYESRNKNSVA | QASTRES | QQYHRLPLS showed 450 pM (6 of 6 replicates). With KVSQSVQYESRNFNSVA | NASTRVS | QQYHRLPLS the result was 950 pM (6 of 6 replicates). For KVCQSVLYESRNKNSVA | WASTRES | QQYHRLPLS, the assay gave 42 nM (6 of 6 replicates). For KFSQSVLYESRTSNAVA | NASTRES | QQYHRLPLS, the assay gave 2.0 nM (6 of 6 replicates).

Source: Li et al. 2023 (doi:10.1038/s41467-023-39022-2), MIT Lincoln Laboratory and A-Alpha Bio; data file from the FLAb repository.